Source: PMC12526156, “Optimization of the Macrocyclic Tetrapeptide [D-Trp]CJ-15,208 to Prevent Stress-Induced Relapse of Cocaine-Seeking Behavior” (Molecules, 2025)
Where a SMILES comes first, the peptide text is derived from it. [ ]: non-standard residue; d: D form. The star is where a group is joined. dPhe(3,5-F2) = N[C@H](Cc1cc(F)cc(F)c1)C(=O)O; dPhe(3-Me) = Cc1cccc(C[C@@H](N)C(=O)O)c1; dPhe(3-F) = N[C@H](Cc1cccc(F)c1)C(=O)O; For = O=C*

Sequences of proteins named here, by UniProt entry; tags and fusion partners are left off.
UniProt P33534, whole entry: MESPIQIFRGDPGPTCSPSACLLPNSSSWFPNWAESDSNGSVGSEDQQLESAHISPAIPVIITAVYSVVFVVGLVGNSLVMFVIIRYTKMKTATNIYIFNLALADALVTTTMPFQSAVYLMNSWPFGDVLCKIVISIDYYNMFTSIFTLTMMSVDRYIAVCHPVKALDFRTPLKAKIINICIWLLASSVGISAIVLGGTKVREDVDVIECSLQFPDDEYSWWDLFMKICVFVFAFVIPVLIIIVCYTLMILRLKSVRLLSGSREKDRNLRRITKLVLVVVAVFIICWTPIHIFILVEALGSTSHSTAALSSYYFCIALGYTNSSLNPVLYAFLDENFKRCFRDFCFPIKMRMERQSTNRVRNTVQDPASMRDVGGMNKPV

Target: KOR (Mus musculus, UniProt P33534)
Experiment: 55 °C WWTW assay, antagonism of peripherally administered U50,488 (10 mg/kg, i.p.)
Settings: for KOR antagonism (reduction of KOR agonist-induced antinociception): 30 mg/kg, p.o.
[1] = U50,488 10 mg/kg i.p. 2.5 h later

`O=Cn1cc(C[C@H]2NC(=O)[C@H](Cc3ccccc3)NC(=O)[C@H]3CCCN3C(=O)[C@H](Cc3ccccc3)NC2=O)c2ccccc21` [Analog 3, [D-Trp(formamide)]CJ-15,208] (cyclo(F[dP]F[dW](For))) was tested, and the “KOR antagonism (reduction of KOR agonist-induced antinociception)” value [1] was “robust KOR antagonist activity”.
In the case of `O=C1N[C@H](Cc2ccccc2)C(=O)N[C@@H](Cc2ccccc2)C(=O)N2CCC[C@@H]2C(=O)N[C@H]1Cc1ccccc1` [Analog 4, cyclo[Phe-D-Pro-Phe-D-Phe]] (cyclo(F[dP]F[dF])), the “KOR antagonism (reduction of KOR agonist-induced antinociception)” value [1] is reported as “robust KOR antagonist activity”.
In the case of `O=C1N[C@H](Cc2cccc(F)c2)C(=O)N[C@@H](Cc2ccccc2)C(=O)N2CCC[C@@H]2C(=O)N[C@H]1Cc1ccccc1` [Analog 6, [D-Phe(m-F)^4]CJ-15,208] (cyclo(F[dP]F[dPhe(3-F)])), the “KOR antagonism (reduction of KOR agonist-induced antinociception)” value [1] is reported as “robust KOR antagonist activity” and the “doses significantly antagonizing U50,488-mediated antinociception” value (2.5 h pretreatment, U50,488 10 mg/kg, i.p.) is reported as 30 mg/kg, p.o.
With `O=C1N[C@H](Cc2cc(F)cc(F)c2)C(=O)N[C@@H](Cc2ccccc2)C(=O)N2CCC[C@@H]2C(=O)N[C@H]1Cc1ccccc1` [Analog 9, [D-Phe(3,5-F2)^4]CJ-15,208] (cyclo(F[dP]F[dPhe(3,5-F2)])) the “antagonism of U50,488-mediated antinociception” value (10 nmol, i.c.v., U50,488 10 mg/kg i.p. 2.5 h later) was “robust KOR antagonist activity”.
For `Cc1cccc(C[C@H]2NC(=O)[C@H](Cc3ccccc3)NC(=O)[C@H]3CCCN3C(=O)[C@H](Cc3ccccc3)NC2=O)c1` [Analog 14, [D-Phe(m-Me)^4]CJ-15,208] (cyclo(F[dP]F[dPhe(3-Me)])), the “KOR antagonism (reduction of KOR agonist-induced antinociception)” value [1] was “robust KOR antagonist activity”.
